Measured values taken from doi:10.1101/2020.04.21.032086.

Protein sequences, listed by entry. Tags and fused reporters are not part of them. Lines headed by an entry give the natural chain unless they say otherwise; changes in a name come on top. Residues count along the entry.
UniProt P61073: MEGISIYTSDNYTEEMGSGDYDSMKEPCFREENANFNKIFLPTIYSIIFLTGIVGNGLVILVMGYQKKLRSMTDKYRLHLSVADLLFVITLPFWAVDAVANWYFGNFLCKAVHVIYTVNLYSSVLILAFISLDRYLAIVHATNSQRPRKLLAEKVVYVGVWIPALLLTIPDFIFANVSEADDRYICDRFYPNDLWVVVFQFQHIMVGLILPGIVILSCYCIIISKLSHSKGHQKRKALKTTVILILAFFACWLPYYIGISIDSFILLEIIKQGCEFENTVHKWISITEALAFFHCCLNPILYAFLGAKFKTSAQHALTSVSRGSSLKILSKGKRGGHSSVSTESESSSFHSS
UniProt P48061, 22-89: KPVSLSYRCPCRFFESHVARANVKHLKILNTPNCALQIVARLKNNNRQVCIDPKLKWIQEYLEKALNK

How the values were obtained:
[1] = target: LgBiT-tagged human CXCR4 receptor (UniProt P61073); assay: split reporter
[2] = target: LgBiT-tagged human CXCR4 receptor (UniProt P61073); assay: FRET or BRET

Substance	pIC50 [1]	koff [2]	pKD [2]
CXCL12 (from UniProt P48061-2 22-89) (ligand)	8.82	–	–
fluorescently-labelled CXCL12 (CXCL12-AF647) (from UniProt P48061-2 22-89) (ligand)	–	0.00533 s⁻¹ and 0.007 s⁻¹	7.8

Values joined by “and” are separate entries in the source; they are usually repeats but may differ in a detail not shown here. Equal values may be shown once.
